These results are taken from ChEMBL document CHEMBL5723584 (2023).

Amino acid sequences for entries named in this document (tags omitted).
UniProt O14578, whole entry: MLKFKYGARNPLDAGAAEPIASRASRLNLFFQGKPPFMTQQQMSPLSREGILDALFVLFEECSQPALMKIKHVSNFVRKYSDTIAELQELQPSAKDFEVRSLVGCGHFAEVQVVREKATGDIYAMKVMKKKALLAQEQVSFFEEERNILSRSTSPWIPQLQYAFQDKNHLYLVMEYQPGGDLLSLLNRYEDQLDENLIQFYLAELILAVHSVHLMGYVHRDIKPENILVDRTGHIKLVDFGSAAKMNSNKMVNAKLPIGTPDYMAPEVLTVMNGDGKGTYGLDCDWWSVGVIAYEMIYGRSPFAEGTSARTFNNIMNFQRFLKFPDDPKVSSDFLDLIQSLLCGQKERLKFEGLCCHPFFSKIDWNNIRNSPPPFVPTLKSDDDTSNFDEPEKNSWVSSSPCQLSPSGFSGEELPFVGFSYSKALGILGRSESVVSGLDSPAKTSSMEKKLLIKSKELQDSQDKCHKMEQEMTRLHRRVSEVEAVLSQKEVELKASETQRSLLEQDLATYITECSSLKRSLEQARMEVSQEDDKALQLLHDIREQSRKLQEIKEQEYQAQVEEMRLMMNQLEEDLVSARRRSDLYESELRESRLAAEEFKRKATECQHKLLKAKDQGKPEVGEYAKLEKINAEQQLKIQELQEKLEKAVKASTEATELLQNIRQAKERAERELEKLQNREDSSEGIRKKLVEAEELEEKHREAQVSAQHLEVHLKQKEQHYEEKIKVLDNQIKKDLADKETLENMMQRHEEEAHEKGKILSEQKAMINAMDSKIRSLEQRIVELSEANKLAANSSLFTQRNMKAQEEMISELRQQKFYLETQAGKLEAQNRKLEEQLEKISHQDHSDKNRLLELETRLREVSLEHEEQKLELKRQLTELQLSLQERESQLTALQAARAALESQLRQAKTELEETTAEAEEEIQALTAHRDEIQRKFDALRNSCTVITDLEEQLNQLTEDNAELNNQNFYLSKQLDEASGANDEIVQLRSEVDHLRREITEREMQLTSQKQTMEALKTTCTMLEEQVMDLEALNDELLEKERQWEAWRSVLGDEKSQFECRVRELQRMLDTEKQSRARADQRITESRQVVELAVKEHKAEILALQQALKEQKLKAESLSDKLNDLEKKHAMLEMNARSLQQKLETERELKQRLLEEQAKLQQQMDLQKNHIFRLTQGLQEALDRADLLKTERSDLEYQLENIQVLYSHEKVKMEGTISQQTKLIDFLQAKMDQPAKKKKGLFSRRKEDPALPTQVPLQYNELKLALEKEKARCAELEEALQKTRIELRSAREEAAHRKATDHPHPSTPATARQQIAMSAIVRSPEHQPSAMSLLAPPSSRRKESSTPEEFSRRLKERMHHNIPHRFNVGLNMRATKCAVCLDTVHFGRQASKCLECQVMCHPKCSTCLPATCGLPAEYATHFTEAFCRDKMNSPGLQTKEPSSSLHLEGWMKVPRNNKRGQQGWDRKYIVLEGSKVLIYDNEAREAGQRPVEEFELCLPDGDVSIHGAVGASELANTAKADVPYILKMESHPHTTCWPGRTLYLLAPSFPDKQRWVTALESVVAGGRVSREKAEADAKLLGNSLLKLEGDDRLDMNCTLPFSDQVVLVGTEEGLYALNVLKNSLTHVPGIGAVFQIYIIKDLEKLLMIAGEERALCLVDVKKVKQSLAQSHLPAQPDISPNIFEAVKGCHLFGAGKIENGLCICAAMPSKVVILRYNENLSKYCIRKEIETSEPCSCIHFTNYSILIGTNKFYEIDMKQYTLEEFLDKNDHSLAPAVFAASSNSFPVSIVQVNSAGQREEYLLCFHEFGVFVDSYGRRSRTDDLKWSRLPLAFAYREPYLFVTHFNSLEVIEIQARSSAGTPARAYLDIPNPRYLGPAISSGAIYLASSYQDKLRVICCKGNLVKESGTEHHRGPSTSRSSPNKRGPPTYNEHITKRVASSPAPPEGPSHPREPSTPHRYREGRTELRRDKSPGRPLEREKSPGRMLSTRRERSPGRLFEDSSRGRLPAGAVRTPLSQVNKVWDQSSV

Usually ΔTm stands for the change in melting temperature against a reference sample.

Assay [1] deals with T1, Citron Rho-interacting kinase (Homo sapiens, UniProt O14578). Nature of the assay: DSF (CITKKD-c006 dephosphorylated). As to conditions: filed as antagonist.
The target in assay [2] is T1, Citron Rho-interacting kinase. Description: DSF (CITKKD-c014 hyperphosphorylated). As to conditions: filed as antagonist.

Take `Cc1cc2c(-c3ccc(NC(=O)[C@H](N)CC(C)(C)C)cc3C)ccnc2[nH]1`: the ΔTm in assay [1] and in assay [2] was 2.1 °C each time.
